Results published in PubChem BioAssay (NCATS).
Only a part is listed here, and it is no random draw. Results filed as inconclusive are left out. The source made the active and inactive calls. Unless noted, calls follow the shape of the dose curve; as a rule, active = well fitted curve in the direction sought with a large enough effect; inconclusive = small, poorly fitted or top-dose-only effect, or another doubt; inactive = no such curve, though single readings can be large; an effect the other way counts as inactive or inconclusive.

Columns and labels:
[1] = AP1 Signaling Pathway (AID 357; active = well fitted curve in either direction with a large enough effect, not every such curve was filed as active;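 also: ME-180 reporter cells stimulated with EGF at its EC50 level; % is scaled to controls: 0 for no effect and ±100 for the full control effect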); settings: ME-180 AP-1-bla reporter, EGF-induced, beta-lactamase ratio, 5 h; at 7.69 µM (top of the series) unless noted
Outline: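 Read-out was the 460nm/530nm emission ratio (excitation 405nm) after CCF4 loading for 2.5 hours at room temperature. Cells carried an AP-1-driven beta-lactamase reporter, were stimulated with EC50 EGF plus compound for 5 hours, and AC50 values came from titrations.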

[2] = Stat Signaling Pathway (AID 446; active = well fitted curve in either direction with a large enough effect, not every such curve was filed as active;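 also: ME-180 cervical cancer cells given 40 pM IL-6 alongside compound; SIE-controlled beta-lactamase reporter measured as 460/530 nm FRET emission ratio; % is scaled to controls: 0 for no effect and ±100 for the full control effect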); settings: ME-180 SIE beta-lactamase reporter, IL-6 stimulated, 5 h; at 7.69 µM (top of the series) unless noted
Outline: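 Reporter line: ME-180 cervical carcinoma, SIE-beta-lactamase. Treatment: compound with 40 pM IL-6, 5 hrs, 37 C, in low-serum OPTI-MEM with 10 mM HEPES pH 7.3. Detection: 460/530 nm fluorescence.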

[3] = target: Mitogen-activated protein kinase 10 (Mus musculus) (UniProt Q61831); experiment: JNK3 AlphaScreen Assay (AID 530; active = well fitted curve in either direction with a large enough effect, not every such curve was filed as active;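 also: kinase came from lysate of stimulated human HepG2 cells; signal reports phosphorylation of biotinylated GST-cJun 1-79 at Ser73 with 10 µM ATP; % is scaled to controls: 0 for no effect and ±100 for the full control effect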); settings: JNK3 lysate, c-Jun phosphorylation; at 11.4 µM (top of the series) unless noted
Outline: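 Compound titrations were preincubated 15 minutes at room temperature with substrate, antibody and pre-activated JNK3-containing HepG2 lysate. Reactions were started with 10 uM ATP and stopped with EDTA-containing bead buffer for AlphaScreen detection.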

[4] = target: 3',5'-cyclic-AMP phosphodiesterase 4B (Homo sapiens) (UniProt Q07343); experiment: qHTS Assay for Inhibitors of PDE-IV (AID 607; active = well fitted activation curve with a large enough effect in the main read-out, with a control signal flat, not every such curve was filed as active; also: % of control where 0% means no effect); settings: HEK293 ACTOne CNG channel cells, membrane potential fluorescence; at 22.9 µM (top of the series)
Outline: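 Cell-based read-out of cAMP via a modified cyclic nucleotide-gated channel and membrane potential dye (535/590 nm) in HEK293 cells expressing PDE4 endogenously. Compounds tested up to 22.9 uM final; 100 uM RO 20-1724 reference.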

[5] = target: Guanine nucleotide-binding protein G(i) subunit alpha-1 (Homo sapiens) (UniProt P63096); experiment: qHTS Assay for Inhibitors of RGS12 GoLoco Motif Activity (Green Fluorophore) (AID 879); settings: Galphai1/FITC-RGS12 GoLoco peptide, fluorescence polarization; at 57.1 µM (top of the series);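 also: 0% = labeled peptide with Gαi1 and full inhibition = labeled peptide alone without protein; negative values mean loss of peptide binding seen as reduced polarization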
Outline: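 Fluorescence polarization assay: 50 nM Gαi1 with 10 nM FITC-labeled RGS12 GoLoco peptide in 10 mM Tris pH 7.5, 150 mM NaCl, 0.1 mM GDP, 0.05% NP40, 10 min at room temperature with compound.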

[6] = qHTS Assay for Identification of Small Molecule Agonists for Thrombopoietin (TPO) Signaling Pathway (AID 917); settings: TPO signaling pathway reporter cells, agonist qHTS, stimulated with TPO at its EC50; at 38.5 µM (top of the series); also: % is scaled to controls: 0 for no effect and ±100 for the full control effect
[7] = target: Muscarinic acetylcholine receptor M1 (Rattus norvegicus) (UniProt P08482); experiment: qHTS Assay for Antagonists of Acetylcholine Muscarinic M1 Receptor: Kinetic Measurement of Intracellular Calcium Response (AID 943); settings: M1-expressing cells, kinetic intracellular calcium fluorescence; also: potency is read from the fitted curve at half-maximal effect; nearly all actives have a fitted effect of over 75% in size
[8] = target: Muscarinic acetylcholine receptor M1 (Rattus norvegicus) (UniProt P08482); experiment: qHTS Assay for Antagonists of Acetylcholine Muscarinic M1 Receptor: Measurement of IP-One Response (AID 944); also: potency is read from the fitted curve at half-maximal effect; nearly all actives have a fitted effect of over 75% in size
[9] = target: Pyruvate kinase PKM (Homo sapiens) (UniProt P14618); experiment: qHTS Assay for Activators of Human Muscle Pyruvate Kinase (AID 954; active = well fitted curve in the direction sought with a large enough effect, not every such curve was filed as active;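 also: 0% = uninhibited enzyme and -100% = no enzyme or full thiadiazolimine inhibition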); settings: purified human PKM1 enzyme activity; at 57.5 µM (top of the series)
Outline: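 Human PKM2 activity is measured as ATP generation, detected by luciferase-coupled luminescence. The enzyme (0.1 nM) acts on 0.5 mM PEP and 0.1 mM ADP for 1 h at ambient temperature; data are normalized to uninhibited and full-inhibition wells.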

[10] = target: Alpha-galactosidase A (Homo sapiens) (UniProt P06280); experiment: Counterscreen for Glucocerebrosidase Inhibitors: qHTS Assay for Human alpha-Galactosidase at pH 4.5 (AID 992); settings: purified enzyme, fluorogenic substrate; at 76.9 µM (top of the series); also: 0% is about no effect
Outline: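 Quantitative HTS: compounds tested from 0.7 nM up to 77 uM against 2 nM enzyme with 80 uM 4-MU alpha-D-galactopyranoside. The 20 min room-temperature reaction is stopped with 1M NaOH/1M glycine, pH 10.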

[11] = target: alpha-glucosidase (Oryza sativa, rice) (UniProt Q653V4); experiment: Counterscreen for Glucocerebrosidase Inhibitors: qHTS Assay for Rice alpha-Glucosidase at pH 5.0 (AID 997); settings: rice alpha-glucosidase enzyme activity; at 76.9 µM (top of the series);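 also: 0% = full activity with enzyme and -100% = basal without enzyme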
Outline: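 Rice alpha-glucosidase (4 nM final) with 400 uM 4-methylumbelliferyl-alpha-D-glucopyranoside in citrate buffer pH 5.0, 20 min at room temperature, stopped at pH 10; fluorescence 365/440 nm, compounds 0.7 nM–77 uM, AC50 from Hill fits.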

[12] = target: DNA repair nuclease/redox regulator APEX1 (Homo sapiens) (UniProt P27695); experiment: qHTS Validation Assay for Inhibitors of the Human Apurinic/apyrimidinic Endonuclease 1 (APE1) (AID 1705); settings: purified APE1 endonuclease activity, fluorescence, titration; at 57.1 µM (top of the series)
Outline: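 Read-out: TAMRA fluorescence (525 nm ex, 598 nm em) from cleavage of a quenched THF abasic-site duplex, 50 nM final; activity taken as intensity change between third and first of three reads 60 s apart.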

[13] = Counterscreen for APE1 Inhibitors: Fluorescent Dye Displacement Validation Assay (AID 1707); settings: fluorescent dye displacement from DNA; at 57.1 µM (top of the series);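 also: plate controls were ThO with dsDNA and no compound for no effect and ThO without dsDNA for full effect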
Outline: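 Compounds are scored by their ability to displace Thiazole Orange (250 nM) from a 50 nM TAMRA-tagged duplex bearing a tetrahydrofuran abasic site. Buffer is 50 mM Tris-HCl pH7.5, 50mM NaCl, 2 mM MgCl2, 0.01% Tween-20.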

[14] = qHTS Assay for Modulators of Human Peripheral Myelin Protein 22 (PMP22) Expression/Activity (AID 1967; active = well fitted curve in the direction sought with a large enough effect in the signal ratio; the % refers to the signal ratio;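 also: 0% = untreated cells and 100% end not stated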); settings: Cell-based PMP22 reporter, dual-color luciferase ratio, 0% = compound-free control cells, mouse Pmp22 promoter in mouse Schwann cells; at 115 µM (top of the series)
Outline: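 Mouse MSC80 Schwann line, Pmp22 promoter–CBG68 reporter, EF-alpha–CBR internal control. 24h compound exposure, 37 °C/5% CO2, DMEM + 10% FBS. Readout: corrected green/red luminescence ratio, normalized to untreated cells; concentration-response curves fitted and classified.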

[15] = target: Ferritin light chain (Equus caballus) (UniProt P02791); experiment: qHTS Validation Assay for Identification of Novel General Anesthetics (AID 2323); settings: horse apoferritin, anesthetic-site fluorescent probe displacement; at 76.9 µM (top of the series); also: % is scaled to controls: 0 for no effect and ±100 for the full control effect
Outline: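 10 uM horse-spleen apoferritin + 1-AMA (50% saturated, PBS); cpd pin-transferred, 10 min RT. Ex 380/Em 535 nm endpoint. Activity normalized between free 1-AMA and 1-AMA/apoferritin; 4-parameter Hill fit of concentration-response.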

[16] = target: ATP-dependent DNA helicase Q1 (Homo sapiens) (UniProt P46063); experiment: qHTS Validation Assay for Inhibitors of RecQ-Like Dna Helicase 1 (RECQ1) (AID 2353); settings: recombinant RECQ1 helicase DNA unwinding assay; at 25.6 µM (top of the series);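 also: plate controls were DMSO vehicle for no effect and enzyme-free control for full effect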
Outline: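 50 nM RECQ1T1 preincubated 15 min with compound in Tris pH 8.0 buffer with MgCl2, DTT, Tween-20 and 2.5 ug/ml poly(dI-dC); started with 200 nM TAMRA/BHQ-2 forked duplex and 2 mM ATP. Unwinding read as fluorescence (525/598 nm), two reads 2 h apart.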

CN(CCCl)Cc1cc(Cl)c(NC2=NCCN2)c(Cl)c1
active: Potency [7] 11.2 µM | Potency [8] 14.1 µM
inactive: activity change, negative = inhibition [1] 7.8% [at 38 µM] | activity, negative = inhibition [2] -2.9% [at 38 µM] | activity change, negative = inhibition [3] -26.7% [at 57.1 µM] | activation (PDE inhibition) [4] -2.65% | activity, negative = inhibition [5] -19.2% | activity, positive = activation [6] -17.3% | activity change, negative = inhibition [9] 4.65% | activity change, negative = inhibition [10] -3.54% | activity change, negative = inhibition [11] -2.28% | activity change, negative = inhibition [12] 22.4% | activity change, negative = inhibition [13] 1.91% | activity change (ratio) [14] 19.9% | activity change, negative = inhibition [15] -9.44% | activity change, negative = inhibition [16] -1.27%
